The values below are quoted from earlier work in patent US20050004105A1, “Treatment for a attention-deficit hyperactivity disorder” (priority 2003, published 2005).

Chains of the proteins cited; added tags and fusions are not shown. Residues count along the entry.
UniProt H0WCX4, 1-619: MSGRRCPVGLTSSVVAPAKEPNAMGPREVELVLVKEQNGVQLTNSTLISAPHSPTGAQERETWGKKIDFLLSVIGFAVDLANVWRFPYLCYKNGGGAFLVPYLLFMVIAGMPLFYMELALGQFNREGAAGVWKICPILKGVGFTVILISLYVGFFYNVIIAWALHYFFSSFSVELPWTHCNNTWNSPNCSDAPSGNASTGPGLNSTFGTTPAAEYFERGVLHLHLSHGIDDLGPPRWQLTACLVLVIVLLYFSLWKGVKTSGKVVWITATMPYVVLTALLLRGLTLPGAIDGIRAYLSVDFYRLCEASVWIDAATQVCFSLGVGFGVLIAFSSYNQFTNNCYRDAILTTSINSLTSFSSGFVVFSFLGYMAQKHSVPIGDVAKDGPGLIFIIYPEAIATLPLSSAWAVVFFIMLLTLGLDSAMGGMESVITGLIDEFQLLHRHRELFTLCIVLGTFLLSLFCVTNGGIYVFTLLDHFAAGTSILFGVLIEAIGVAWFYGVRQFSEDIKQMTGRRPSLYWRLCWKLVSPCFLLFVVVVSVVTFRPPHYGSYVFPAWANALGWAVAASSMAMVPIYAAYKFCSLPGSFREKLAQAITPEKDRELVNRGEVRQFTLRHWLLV

pKi: −log10 of the molar value.

One may read the pKi as the Ki on a negative log10 scale, so that one unit is a factor of ten.

This series has as its target dopamine transporter (DAT) (Cavia porcellus, UniProt H0WCX4). The settings on record: guinea pig striatal membranes, [3H]WIN 35,428; exemplary protocol; read-out: Ki of reference compound, DAT binding assay; cited from earlier work.

Consider `Fc1ccc(C(OCCN2CCN(CCCc3ccccc3)CC2)c2ccc(F)cc2)cc1` [GBR-12909], for which the negative logarithm of the Ki (pKi) was ~8.15.
